pIC50: −log10 of the molar value. Like-named read-outs stand apart in the source and are kept apart here.
What was measured:
EGFR LRCS (L858R/C797S) = EGFR LRCS (L858R/C797S) (Homo sapiens, UniProt P00533, C797S/L858R); test: Biochemical EGFR kinase assay (Lance Ultra TR-FRET), double mutant L858R/C797S
[1] = target: EGFR LRTMCS (L858R/T790M/C797S) (Homo sapiens, UniProt P00533, C797S/L858R/T790M); test: Biochemical EGFR kinase assay (Lance Ultra TR-FRET), triple mutant L858R/T790M/C797S
EGFR WT = EGFR WT (Homo sapiens, UniProt P00533); test: Biochemical EGFR kinase assay (Lance Ultra TR-FRET), wildtype
[2] = target: EGFR D19TMCS (del19/T790M/C797S) (Homo sapiens, UniProt P00533, C797S/DEL746-750/T790M); test: Biochemical EGFR kinase assay (Lance Ultra TR-FRET), triple mutant del19/T790M/C797S
EGFR D19CS (del19/C797S) = EGFR D19CS (del19/C797S) (Homo sapiens, UniProt P00533, C797S/DEL746-750); test: Biochemical EGFR kinase assay (Lance Ultra TR-FRET), double mutant del19/C797S
[3] = read-out: EGFR LRCS IC50, ATP 1 mM
[4] = read-out: EGFR LRCS IC50, ATP Km
[5] = read-out: EGFR LRTMCS IC50, ATP 1 mM
[6] = read-out: EGFR LRTMCS IC50, ATP Km
[7] = read-out: EGFR WT IC50, ATP 1 mM
[8] = read-out: EGFR D19TMCS IC50, ATP 1 mM
[9] = read-out: EGFR D19TMCS IC50, ATP Km
[10] = read-out: EGFR D19CS IC50, ATP 1 mM
[11] = read-out: EGFR D19CS IC50, ATP Km
[12] = read-out: IC50, EGFR-LRCS, 1 mM, ATP 1 mM, EGFR L858R/C797S
[13] = read-out: IC50, EGFR-LRCS, Km, ATP at Km, EGFR L858R/C797S
[14] = read-out: IC50, EGFR LRTMCS, 1 mM, ATP 1 mM, EGFR L858R/T790M/C797S
[15] = read-out: IC50, EGFR LRTMCS, Km, ATP at Km, EGFR L858R/T790M/C797S
[16] = read-out: IC50, EGFR WT, 1 mM, ATP 1 mM, EGFR wildtype
[17] = read-out: IC50, EGFR WT, Km, ATP at Km, EGFR wildtype
[18] = read-out: IC50, EGFR D19TMCS, Km, ATP at Km, EGFR del19/T790M/C797S
[19] = read-out: IC50, EGFR-D19CS, 1 mM, ATP 1 mM, EGFR del19/C797S
[20] = read-out: IC50, EGFR-D19CS, Km, ATP at Km, EGFR del19/C797S

By UniProt entry, the sequences of proteins in these tests, tags left out. Where a name states a change or a piece, a line headed by the entry shows the natural chain unless it says otherwise. Chains listed by the source or under a name are the forms on record and can include a tag or linker. Residues count along the entry.
UniProt P00533, 25-1210 limits assumed: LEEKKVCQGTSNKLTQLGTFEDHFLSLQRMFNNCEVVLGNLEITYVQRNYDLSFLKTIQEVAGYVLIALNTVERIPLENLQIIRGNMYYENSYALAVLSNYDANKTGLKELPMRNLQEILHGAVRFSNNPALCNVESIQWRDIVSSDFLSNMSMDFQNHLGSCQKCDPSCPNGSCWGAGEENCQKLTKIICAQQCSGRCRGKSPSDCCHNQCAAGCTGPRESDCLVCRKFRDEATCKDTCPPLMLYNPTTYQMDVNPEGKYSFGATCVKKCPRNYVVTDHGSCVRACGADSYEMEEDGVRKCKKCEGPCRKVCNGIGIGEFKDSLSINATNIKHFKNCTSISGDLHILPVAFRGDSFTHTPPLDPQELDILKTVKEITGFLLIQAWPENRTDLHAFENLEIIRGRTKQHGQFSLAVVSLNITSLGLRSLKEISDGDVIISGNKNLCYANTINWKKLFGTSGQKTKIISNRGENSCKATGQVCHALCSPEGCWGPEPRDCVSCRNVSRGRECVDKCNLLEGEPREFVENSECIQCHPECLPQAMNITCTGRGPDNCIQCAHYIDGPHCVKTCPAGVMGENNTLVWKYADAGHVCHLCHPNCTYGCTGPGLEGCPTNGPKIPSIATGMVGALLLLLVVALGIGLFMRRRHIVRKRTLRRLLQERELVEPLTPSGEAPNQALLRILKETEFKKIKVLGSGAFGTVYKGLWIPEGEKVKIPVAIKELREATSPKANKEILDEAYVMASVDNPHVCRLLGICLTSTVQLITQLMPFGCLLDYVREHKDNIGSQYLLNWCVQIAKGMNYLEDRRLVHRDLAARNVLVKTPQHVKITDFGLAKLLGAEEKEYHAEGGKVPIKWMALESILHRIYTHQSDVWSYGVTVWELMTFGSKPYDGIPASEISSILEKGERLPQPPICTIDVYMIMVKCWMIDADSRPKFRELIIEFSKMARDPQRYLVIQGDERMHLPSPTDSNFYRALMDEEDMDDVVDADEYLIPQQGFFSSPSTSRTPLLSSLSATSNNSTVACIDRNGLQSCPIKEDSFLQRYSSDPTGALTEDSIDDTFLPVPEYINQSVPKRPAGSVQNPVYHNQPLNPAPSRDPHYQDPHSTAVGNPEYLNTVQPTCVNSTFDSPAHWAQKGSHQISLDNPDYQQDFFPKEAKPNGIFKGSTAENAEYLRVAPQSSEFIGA
UniProt P00533, 25-1210 C797S/L858R limits assumed: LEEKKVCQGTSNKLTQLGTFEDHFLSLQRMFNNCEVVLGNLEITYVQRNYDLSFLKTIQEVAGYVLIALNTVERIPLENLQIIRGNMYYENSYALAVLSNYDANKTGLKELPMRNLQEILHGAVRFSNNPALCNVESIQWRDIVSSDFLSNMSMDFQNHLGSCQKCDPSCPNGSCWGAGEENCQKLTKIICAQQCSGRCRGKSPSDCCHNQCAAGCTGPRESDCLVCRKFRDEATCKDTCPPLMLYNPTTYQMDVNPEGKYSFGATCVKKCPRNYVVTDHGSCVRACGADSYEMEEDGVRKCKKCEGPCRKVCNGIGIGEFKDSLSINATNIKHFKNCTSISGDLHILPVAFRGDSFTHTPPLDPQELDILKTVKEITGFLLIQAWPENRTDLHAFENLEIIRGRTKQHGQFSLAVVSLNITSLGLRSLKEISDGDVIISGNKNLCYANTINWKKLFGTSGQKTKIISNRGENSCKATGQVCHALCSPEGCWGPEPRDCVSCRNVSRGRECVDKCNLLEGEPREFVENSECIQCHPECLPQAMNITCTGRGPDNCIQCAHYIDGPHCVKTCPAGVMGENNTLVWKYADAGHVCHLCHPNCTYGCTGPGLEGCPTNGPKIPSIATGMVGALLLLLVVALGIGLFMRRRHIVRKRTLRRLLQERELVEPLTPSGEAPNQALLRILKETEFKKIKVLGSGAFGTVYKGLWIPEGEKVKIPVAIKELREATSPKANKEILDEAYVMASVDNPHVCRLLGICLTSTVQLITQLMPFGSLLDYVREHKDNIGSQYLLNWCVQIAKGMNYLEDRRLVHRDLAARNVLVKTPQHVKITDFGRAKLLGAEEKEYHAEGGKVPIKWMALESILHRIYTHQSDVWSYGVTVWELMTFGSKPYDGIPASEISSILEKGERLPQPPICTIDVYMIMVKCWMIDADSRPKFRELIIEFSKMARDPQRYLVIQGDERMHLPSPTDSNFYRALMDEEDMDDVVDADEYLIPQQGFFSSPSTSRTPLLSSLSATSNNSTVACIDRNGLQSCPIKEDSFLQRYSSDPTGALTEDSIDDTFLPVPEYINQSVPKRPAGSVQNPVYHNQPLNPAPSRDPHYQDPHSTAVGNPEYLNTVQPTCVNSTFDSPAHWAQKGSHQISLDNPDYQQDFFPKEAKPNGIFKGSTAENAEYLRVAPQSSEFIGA
UniProt P00533, 25-1210 T790M/C797S/L858R limits assumed: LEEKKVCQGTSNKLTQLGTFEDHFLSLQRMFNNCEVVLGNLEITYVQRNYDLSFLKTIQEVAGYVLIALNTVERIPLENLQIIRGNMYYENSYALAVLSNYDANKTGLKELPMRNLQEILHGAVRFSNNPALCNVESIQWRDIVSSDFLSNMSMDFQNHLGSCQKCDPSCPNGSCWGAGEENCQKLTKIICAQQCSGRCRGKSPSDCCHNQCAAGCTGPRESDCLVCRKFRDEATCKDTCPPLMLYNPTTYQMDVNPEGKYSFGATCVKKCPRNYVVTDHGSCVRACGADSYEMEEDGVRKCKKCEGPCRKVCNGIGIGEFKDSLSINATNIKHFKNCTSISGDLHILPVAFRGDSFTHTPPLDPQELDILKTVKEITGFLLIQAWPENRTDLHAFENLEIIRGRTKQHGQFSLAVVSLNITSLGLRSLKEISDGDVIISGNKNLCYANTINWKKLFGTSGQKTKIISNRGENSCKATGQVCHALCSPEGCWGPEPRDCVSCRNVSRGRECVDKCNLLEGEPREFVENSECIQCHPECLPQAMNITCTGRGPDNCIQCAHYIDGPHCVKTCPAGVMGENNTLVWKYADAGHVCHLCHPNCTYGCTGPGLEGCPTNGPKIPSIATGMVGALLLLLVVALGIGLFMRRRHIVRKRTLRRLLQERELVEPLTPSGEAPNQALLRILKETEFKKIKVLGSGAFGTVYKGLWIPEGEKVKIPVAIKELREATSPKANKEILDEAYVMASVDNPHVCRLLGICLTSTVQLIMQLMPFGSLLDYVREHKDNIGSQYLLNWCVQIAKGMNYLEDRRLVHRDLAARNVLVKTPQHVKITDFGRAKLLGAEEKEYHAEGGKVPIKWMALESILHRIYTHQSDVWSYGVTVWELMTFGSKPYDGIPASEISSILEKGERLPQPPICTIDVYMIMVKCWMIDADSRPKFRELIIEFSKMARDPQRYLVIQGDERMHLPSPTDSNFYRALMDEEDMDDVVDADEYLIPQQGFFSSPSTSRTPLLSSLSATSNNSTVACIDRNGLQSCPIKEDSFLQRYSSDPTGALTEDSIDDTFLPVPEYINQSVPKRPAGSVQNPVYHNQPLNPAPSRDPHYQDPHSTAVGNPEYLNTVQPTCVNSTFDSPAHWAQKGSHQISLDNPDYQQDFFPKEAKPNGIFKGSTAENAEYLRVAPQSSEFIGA
UniProt P00533, with tags, fused parts or gaps DEL746-750/C797S limits assumed: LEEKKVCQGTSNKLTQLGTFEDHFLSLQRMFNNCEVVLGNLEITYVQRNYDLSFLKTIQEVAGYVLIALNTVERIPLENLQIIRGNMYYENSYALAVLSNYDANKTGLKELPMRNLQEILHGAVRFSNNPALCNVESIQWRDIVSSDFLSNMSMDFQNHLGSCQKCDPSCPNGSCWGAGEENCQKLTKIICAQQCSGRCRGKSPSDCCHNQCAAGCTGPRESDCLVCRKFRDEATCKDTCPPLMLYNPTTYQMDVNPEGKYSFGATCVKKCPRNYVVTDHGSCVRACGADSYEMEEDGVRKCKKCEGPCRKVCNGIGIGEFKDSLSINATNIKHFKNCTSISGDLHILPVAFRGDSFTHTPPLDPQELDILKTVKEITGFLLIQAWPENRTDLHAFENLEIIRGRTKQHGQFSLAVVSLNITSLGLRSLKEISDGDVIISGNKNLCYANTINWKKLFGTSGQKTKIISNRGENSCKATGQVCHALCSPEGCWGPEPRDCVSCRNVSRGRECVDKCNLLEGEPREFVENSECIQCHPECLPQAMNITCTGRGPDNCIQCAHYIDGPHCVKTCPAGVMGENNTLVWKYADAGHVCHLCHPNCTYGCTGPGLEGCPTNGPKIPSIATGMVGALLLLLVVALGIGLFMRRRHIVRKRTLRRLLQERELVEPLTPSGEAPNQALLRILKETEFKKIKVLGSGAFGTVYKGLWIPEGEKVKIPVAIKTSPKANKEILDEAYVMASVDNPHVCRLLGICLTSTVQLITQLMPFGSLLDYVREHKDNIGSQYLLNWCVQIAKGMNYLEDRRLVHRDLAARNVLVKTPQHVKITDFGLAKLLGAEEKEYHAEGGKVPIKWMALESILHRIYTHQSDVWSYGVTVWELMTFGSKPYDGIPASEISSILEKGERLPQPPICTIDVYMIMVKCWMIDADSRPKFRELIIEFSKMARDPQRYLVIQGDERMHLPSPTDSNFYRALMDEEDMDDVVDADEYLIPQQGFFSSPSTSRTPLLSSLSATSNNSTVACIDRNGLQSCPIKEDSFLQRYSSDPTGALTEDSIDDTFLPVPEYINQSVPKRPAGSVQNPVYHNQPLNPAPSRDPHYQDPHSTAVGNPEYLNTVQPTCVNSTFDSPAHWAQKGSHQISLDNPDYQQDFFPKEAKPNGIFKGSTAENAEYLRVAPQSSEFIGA
UniProt P00533, with tags, fused parts or gaps DEL746-750/T790M/C797S limits assumed: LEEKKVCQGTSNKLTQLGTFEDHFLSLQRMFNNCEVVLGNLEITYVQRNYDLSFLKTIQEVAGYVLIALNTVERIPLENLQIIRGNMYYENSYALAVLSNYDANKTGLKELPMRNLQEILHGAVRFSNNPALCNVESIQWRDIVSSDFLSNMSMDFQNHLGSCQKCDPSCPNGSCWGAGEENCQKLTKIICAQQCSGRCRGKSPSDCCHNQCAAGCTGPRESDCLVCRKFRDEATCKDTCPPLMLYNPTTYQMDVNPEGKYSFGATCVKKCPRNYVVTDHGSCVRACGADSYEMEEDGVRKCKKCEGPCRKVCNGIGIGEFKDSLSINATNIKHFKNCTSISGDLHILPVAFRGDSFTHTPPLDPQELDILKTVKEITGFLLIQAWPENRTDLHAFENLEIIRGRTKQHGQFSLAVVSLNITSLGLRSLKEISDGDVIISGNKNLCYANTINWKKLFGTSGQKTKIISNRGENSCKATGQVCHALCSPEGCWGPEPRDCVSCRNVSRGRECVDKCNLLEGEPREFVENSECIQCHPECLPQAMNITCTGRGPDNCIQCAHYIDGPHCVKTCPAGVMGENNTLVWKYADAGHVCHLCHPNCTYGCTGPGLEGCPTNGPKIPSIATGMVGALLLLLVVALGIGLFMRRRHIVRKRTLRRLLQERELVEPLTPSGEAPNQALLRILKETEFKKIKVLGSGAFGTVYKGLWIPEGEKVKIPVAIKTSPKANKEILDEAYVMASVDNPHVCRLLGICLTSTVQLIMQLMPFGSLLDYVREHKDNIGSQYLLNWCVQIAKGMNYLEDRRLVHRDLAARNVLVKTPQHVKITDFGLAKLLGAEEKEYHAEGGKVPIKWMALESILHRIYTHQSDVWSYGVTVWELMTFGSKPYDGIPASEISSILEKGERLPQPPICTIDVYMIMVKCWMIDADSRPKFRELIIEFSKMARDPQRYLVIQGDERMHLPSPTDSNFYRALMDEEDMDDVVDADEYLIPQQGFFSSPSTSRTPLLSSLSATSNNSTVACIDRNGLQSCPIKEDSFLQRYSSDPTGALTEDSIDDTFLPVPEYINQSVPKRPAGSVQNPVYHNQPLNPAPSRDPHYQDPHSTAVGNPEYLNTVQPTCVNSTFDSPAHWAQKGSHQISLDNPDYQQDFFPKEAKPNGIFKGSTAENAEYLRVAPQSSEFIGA

Structure (SMILES) | pIC50 (EGFR LRCS (L858R/C797S); [3]) | pIC50 (EGFR LRCS (L858R/C797S); [4]) | pIC50 [1, 5] | pIC50 [1, 6] | pIC50 (EGFR WT; [7]) | pIC50 (EGFR WT; read-out: EGFR WT IC50, ATP Km) | pIC50 [2, 8] | pIC50 [2, 9] | pIC50 (EGFR D19CS (del19/C797S); [10]) | pIC50 (EGFR D19CS (del19/C797S); [11]) | pIC50 (EGFR LRCS (L858R/C797S); [12]) | pIC50 (EGFR LRCS (L858R/C797S); [13]) | pIC50 [1, 14] | pIC50 [1, 15] | pIC50 (EGFR WT; [16]) | pIC50 (EGFR WT; [17]) | pIC50 [2, 18] | pIC50 (EGFR D19CS (del19/C797S); [19]) | pIC50 (EGFR D19CS (del19/C797S); [20])
C[C@@H]1CCNc2cc(ncc2-c2ccn(C(F)F)n2)Nc2ccnc(n2)-c2cnn(C)c2O1 | 6.00 to 7.00 | > 8.00 | > 8.00 | > 8.00 | < 6.00 | 7.00 to 8.00 | > 8.00 | > 8.00 | 7.00 to 8.00 | > 8.00 |  |  |  |  |  |  |  |  | 
Cc1nn(C)c2c1-c1nccc(n1)Nc1cc(c(-c3ncc(CN4CCC(C)(O)CC4)cc3F)cn1)NCC[C@H](C)O2 |  |  |  |  |  |  |  |  |  |  | 7.00 to 8.00 | > 8.00 | > 8.00 | > 8.00 | < 6.00 | 7.00 to 8.00 | > 8.00 | 7.00 to 8.00 | > 8.00
Cc1nn(C)c2c1-c1nccc(n1)Nc1cc(c(-c3ccc(C(C)(C)F)cn3)cn1)N[C@@H](C)CCO2 |  |  |  |  |  |  |  |  |  |  | 7.00 to 8.00 | > 8.00 | > 8.00 | > 8.00 | < 6.00 | 7.00 to 8.00 | > 8.00 | 7.00 to 8.00 | > 8.00
C[C@H]1CCOc2c(cnn2C)-c2nccc(n2)Nc2cc(c(-c3ncc(CN4CCOCC4)cc3F)cn2)N1 | 7.00 to 8.00 | > 8.00 | > 8.00 | > 8.00 | < 6.00 | > 8.00 | > 8.00 | > 8.00 | 7.00 to 8.00 | > 8.00 |  |  |  |  |  |  |  |  | 
C[C@H]1CCOc2c(cnn2C)-c2nccc(n2)Nc2cc(c(-c3cc(N4CC(CC(F)F)C4)ccn3)cn2)N1 | < 6.00 | 6.00 to 7.00 | 7.00 to 8.00 | > 8.00 | < 6.00 | 6.00 to 7.00 | 7.00 to 8.00 | > 8.00 | < 6.00 | 6.00 to 7.00 |  |  |  |  |  |  |  |  | 
Cn1ncc2c1OC[C@@H](F)CNc1cc(ncc1-c1ccc(OC(F)F)cn1)Nc1ccnc-2n1 | < 6.00 | 6.00 to 7.00 | 6.00 to 7.00 | > 8.00 | < 6.00 | < 6.00 | 7.00 to 8.00 | > 8.00 | < 6.00 | < 6.00 |  |  |  |  |  |  |  |  | 
Cc1cn(C)nc1-c1cnc2cc1N[C@@H](C)CCOc1c(cnn1C)-c1nccc(n1)N2 | 6.00 to 7.00 | > 8.00 | > 8.00 | > 8.00 | < 6.00 | 7.00 to 8.00 | > 8.00 | > 8.00 | 6.00 to 7.00 | > 8.00 |  |  |  |  |  |  |  |  | 

Other lines, results leading:

pIC50 (EGFR LRCS (L858R/C797S); [3]) | pIC50 (EGFR LRCS (L858R/C797S); [4]) | pIC50 [1, 5] | pIC50 [1, 6] | pIC50 (EGFR WT; [7]) | pIC50 (EGFR WT; read-out: EGFR WT IC50, ATP Km) | pIC50 [2, 8] | pIC50 [2, 9] | pIC50 (EGFR D19CS (del19/C797S); [10]) | pIC50 (EGFR D19CS (del19/C797S); [11]) | pIC50 (EGFR LRCS (L858R/C797S); [12]) | pIC50 (EGFR LRCS (L858R/C797S); [13]) | pIC50 [1, 14] | pIC50 [1, 15] | pIC50 (EGFR WT; [16]) | pIC50 (EGFR WT; [17]) | pIC50 [2, 18] | pIC50 (EGFR D19CS (del19/C797S); [19]) | pIC50 (EGFR D19CS (del19/C797S); [20]) | Structure (SMILES)
 |  |  |  |  |  |  |  |  |  | 7.00 to 8.00 | > 8.00 | > 8.00 | > 8.00 | < 6.00 | > 8.00 | > 8.00 | 7.00 to 8.00 | > 8.00 | Cc1nn(C)c2c1-c1nccc(n1)Nc1cc(c(-c3ncc(CN4CC5CS(=O)(=O)CC5C4)cc3F)cn1)N[C@@H](C)CCO2 (stereo partly shown)
 |  |  |  |  |  |  |  |  |  | 6.00 to 7.00 | > 8.00 | 7.00 to 8.00 | > 8.00 | < 6.00 | > 8.00 | > 8.00 | 7.00 to 8.00 | > 8.00 | Cc1nn(C)c2c1-c1nccc(n1)Nc1cc(c(-c3cnc(CN4CCC(F)(F)CC4)cn3)cn1)N[C@@H](C)CCO2
> 8.00 | > 8.00 | > 8.00 | > 8.00 | < 6.00 | 7.00 to 8.00 | > 8.00 | > 8.00 | > 8.00 | > 8.00 |  |  |  |  |  |  |  |  |  | Cc1nn(C)c2c1-c1nccc(n1)Nc1cc(c(-c3ccc(N4CCN(C)CC4)cn3)cn1)NCC[C@H](C)O2
< 6.00 | 6.00 to 7.00 | 7.00 to 8.00 | > 8.00 | < 6.00 | 6.00 to 7.00 | 7.00 to 8.00 | 7.00 to 8.00 | < 6.00 | 6.00 to 7.00 |  |  |  |  |  |  |  |  |  | C[C@H]1CCOc2c(cnn2C)-c2nccc(n2)Nc2cc(c(-c3ncccc3OC(F)F)cn2)N1
 |  |  |  |  |  |  |  |  |  | 6.00 to 7.00 | 7.00 to 8.00 | > 8.00 | > 8.00 | < 6.00 | 7.00 to 8.00 | > 8.00 | 7.00 to 8.00 | 7.00 to 8.00 | Cc1nn(C)c2c1-c1nccc(n1)Nc1cc(c(-c3ncc(CN4CCOCC4)cc3F)cn1)NCC[C@H](C)O2

— patent publication US20260384450A1, “MACROCYCLIC AMINOPYRIDINE COMPOUNDS AS EGFR INHIBITORS” (published 2026)
